Measurements from PMC4243247, “The DUSP–Ubl domain of USP4 enhances its catalytic efficiency by promoting ubiquitin exchange” (Nature Communications, 2014).

B1: USP4 FL (residues 8–925), isoform 1 (enzyme, human, UniProt Q13107 8-925, looked up)
chain: RERPDAETQKSELGPLMRTTLQRGAQWYLIDSRWFKQWKKYVGFDSWDMYNVGEHNLFPGPIDNSGLFSDPESQTLKEHLIDELDYVLVPTEAWNKLLNWYGCVEGQQPIVRKVVEHGLFVKHCKVEVYLLELKLCENSDPTNVLSCHFSKADTIATIEKEMRKLFNIPAERETRLWNKYMSNTYEQLSKLDNTVQDAGLYQGQVLVIEPQNEDGTWPRQTLQSKSSTAPSRNFTTSPKSSASPYSSVSASLIANGDSTSTCGMHSSGVSRGGSGFSASYNCQEPPSSHIQPGLCGLGNLGNTCFMNSALQCLSNTAPLTDYFLKDEYEAEINRDNPLGMKGEIAEAYAELIKQMWSGRDAHVAPRMFKTQVGRFAPQFSGYQQQDSQELLAFLLDGLHEDLNRVKKKPYLELKDANGRPDAVVAKEAWENHRLRNDSVIVDTFHGLFKSTLVCPECAKVSVTFDPFCYLTLPLPLKKDRVMEVFLVPADPHCRPTQYRVTVPLMGAVSDLCEALSRLSGIAAENMVVADVYNHRFHKIFQMDEGLNHIMPRDDIFVYEVCSTSVDGSECVTLPVYFRERKSRPSSTSSASALYGQPLLLSVPKHKLTLESLYQAVCDRISRYVKQPLPDEFGSSPLEPGACNGSRNSCEGEDEEEMEHQEEGKEQLSETEGSGEDEPGNDPSETTQKKIKGQPCPKRLFTFSLVNSYGTADINSLAADGKLLKLNSRSTLAMDWDSETRRLYYDEQESEAYEKHVSMLQPQKKKKTTVALRDCIELFTTMETLGEHDPWYCPNCKKHQQATKKFDLWSLPKILVVHLKRFSYNRYWRDKLDTVVEFPIRGLNMSEFVCNLSARPYVYDLIAVSNHYGAMGVGHYTAYAKNKLNGKWYYFDDSNVSLASEDQIVTKAAYVLFYQRRDD
notes: ubiquitin-specific protease USP4, human, residues 8-925, isoform 1; pET-NKI His-3C-LIC vector; His tag removed with 3C protease; also called USP4 FL isof; full-length USP4
B2: USP4 catalytic domain (USP4 CD, residues 296–925) (domain or fragment, human, UniProt Q13107 296-925, looked up)
chain: HIQPGLCGLGNLGNTCFMNSALQCLSNTAPLTDYFLKDEYEAEINRDNPLGMKGEIAEAYAELIKQMWSGRDAHVAPRMFKTQVGRFAPQFSGYQQQDSQELLAFLLDGLHEDLNRVKKKPYLELKDANGRPDAVVAKEAWENHRLRNDSVIVDTFHGLFKSTLVCPECAKVSVTFDPFCYLTLPLPLKKDRVMEVFLVPADPHCRPTQYRVTVPLMGAVSDLCEALSRLSGIAAENMVVADVYNHRFHKIFQMDEGLNHIMPRDDIFVYEVCSTSVDGSECVTLPVYFRERKSRPSSTSSASALYGQPLLLSVPKHKLTLESLYQAVCDRISRYVKQPLPDEFGSSPLEPGACNGSRNSCEGEDEEEMEHQEEGKEQLSETEGSGEDEPGNDPSETTQKKIKGQPCPKRLFTFSLVNSYGTADINSLAADGKLLKLNSRSTLAMDWDSETRRLYYDEQESEAYEKHVSMLQPQKKKKTTVALRDCIELFTTMETLGEHDPWYCPNCKKHQQATKKFDLWSLPKILVVHLKRFSYNRYWRDKLDTVVEFPIRGLNMSEFVCNLSARPYVYDLIAVSNHYGAMGVGHYTAYAKNKLNGKWYYFDDSNVSLASEDQIVTKAAYVLFYQRRDD
notes: USP4, human, catalytic domain with the insert, residues 296-925; unlabelled form, used in the fluorescence polarisation and activity assays

What was measured:
Settings in all cases: both partners purified
[1] = target: T1, N-terminally TAMRA-labelled ubiquitin (UniProt P0CG48 1-76, TAMRA on the N-terminus); assay: fluorescence polarisation; stopped-flow, association: equal volumes of USP4 (100–1,000 nM) and TAMRA-ubiquitin rapidly mixed; 20 °C; 20 mM HEPES pH 7.5, 150 mM NaCl, 5 mM DTT, 0.05% Tween 20; single exponential, kon as slope of Kobs against USP4 concentration
T1 construct: ubiquitin, the cut product of the ubiquitin precursors; also called TAMRAUb; TAMRA-Ubiquitin

[2] = target: T1, N-terminally TAMRA-labelled ubiquitin; assay: fluorescence polarisation; equilibrium: different concentrations of USP4 with 2.5 nM TAMRA-ubiquitin; same setup as the Ub–Rhod assays (25 °C, 20 mM HEPES pH 7.5, 150 mM NaCl, 5 mM DTT, 0.05% Tween 20); one-site binding model accounting for ligand depletion
[3] = target: T1, N-terminally TAMRA-labelled ubiquitin; assay: fluorescence polarisation; stopped-flow, dissociation: USP4 constructs (12.5–250 nM) incubated with 2.5 nM TAMRA-ubiquitin 10–30 min, mixed with equal volume of 2.5 μM non-labelled ubiquitin; 20 °C; 20 mM HEPES pH 7.5, 150 mM NaCl, 5 mM DTT, 0.05% Tween 20; global fit to a two-phase decay (k_slow, k_fast)

Row | Binder | kon [1] [M⁻¹ s⁻¹] | Kd [2] [nM] | k_fast (dissociation, fast component) [3] [s⁻¹] | k_slow (dissociation, slow component) [3] [s⁻¹]
1 | B1 | 5.1e+06 ± 230000 | 92 ± 21 | 0.55 ± 0.016 | 0.053 ± 0.003
2 | B2 | 74000 ± 17000 | 44 ± 7 | 0.011 ± 0.0008 | 0.0013 ± 1e-05
